Assay results taken from patent publication US10258038B2, “Use of heterocyclic compounds for controlling nematodes” (BAYER CROPSCIENCE AKTIENGESELLSCHAFT, priority 2014, dated 2019).

Assays:
Assay type in all cases: in vivo
Globodera rostochiensis = Globodera rostochiensis test (soil application); conditions: application rate 2 ppm in soil; potato seedling; after six weeks
Description: Globodera rostochiensis—Test (Soil Application)
(§1) Solvent: 4 parts by weight acetone
(§2) Emulsifier: 1 part by weight alkylaryl polyglycol ether
To produce a suitable preparation of active compound, 1 part by weight of active compound is mixed with solvent and emulsifier at the ratio 4:1 and is diluted with water to the desired concentration. This compound composition is mixed with soil. The stated concentration refers to the amount of compound per unit of volume soil (mg/1=ppm).
450 ml of this compound composition is mixed with 50 ml of soil infected with Globodera rostochiensis (20.000 nematodes/100 ml), filled in 500 ml pots and a potato seedling is planted.
After six weeks the average number of cysts in the potato roots per pot are determined and efficieny is calculated by using Abbott's formula:
(§3) C=untreated control plants

Radopholus similis = Radopholus similis test (soil application); conditions: application rate 2 ppm in soil; banana seedling; after 2 weeks
Description: Radopholus similis—Test (Soil Application)
as §1, §2
To produce a suitable preparation of active compound, 1 part by weight of active compound is mixed with solvent and emulsifier at the ratio 4:1 and is diluted with water to the desired concentration.
This compound solution is mixed with soil. The stated concentration refers to the amount of compound per unit of volume soil (mg/1=ppm). The treated soil is filled into 250 ml pots and a banana seedling is planted. Afterwards 2.5 ml of a nematode suspension (500 Radopholus similis/ml) are applied.
After 2 weeks the number of nematodes in the banana roots is determined by means of maceration. The roots are cut off, cleaned with water and after adding 25-40 ml 0.01% lactic acid—acid fuchsin solution they are boiled in a microwave. On the next day the roots are rinsed over a 0.025 mm-nematode sieve, roughly minced and macerated with 15-20 ml water in an Ultra Turrax. After filling up with water to 45 ml, the number of nematodes in the supernatant is determined microscopically with a counting chamber.
The average number of nematodes per pot is determined and efficieny is calculated by using Abbott's formula:
as §3

Meloidogyne incognita = Meloidogyne incognita in tomato test (MELGIN soil application); conditions: application rate 2 ppm in soil; tomato seedling (Solanum lycopersicum); after five weeks
Description: Meloidogyne incognita in Tomato—Test (MELGIN Soil Application)
as §1, §2
To produce a suitable preparation of active compound, 1 part by weight of active compound is mixed with solvent and emulsifier at the ratio 4:1 and is diluted with water to the desired concentration. The stated concentration refers to the amount of compound per unit of volume soil (mg/1=ppm).
This compound composition is mixed with 500 ml of soil and 4 ml of a nematode suspension (1000 differenciated eggs and larvae of Meloidogyne incognita/ml). The stated concentration refers to the amount of compound per unit of volume soil (mg/1=ppm). The treated soil is filled in 500 ml pots and a tomato seedling (Solanum lycopersicum) is planted.
After five weeks the average number of galls in the tomato roots per pot are determined and efficieny is calculated by using Abbott's formula:
as §3

O=C(Nc1ccn(-c2ncc(F)cc2F)n1)c1ccccc1C(F)(F)F [Compound I-1-140, N-[1-(3,5-difluoropyridin-2-yl)-1H-pyrazol-3-yl]-2-(trifluoromethyl)benzamide]
100%: activity (efficiency by Abbott's formula, number of cysts in potato roots) (Globodera rostochiensis) | activity (efficiency by Abbott's formula, number of nematodes in banana roots) (Radopholus similis) | activity (efficiency by Abbott's formula, number of galls in tomato roots) (Meloidogyne incognita)
